For one compound, %max results are on record in ChEMBL document CHEMBL3585309, “Peroxisome Proliferator-Activated Receptor γ (PPARγ) and Ligand Choreography: Newcomers Take the Stage” (J Med Chem, 2015).

The chains behind the UniProt entries cited, without tags or fusion partners. Where a name states a change or a piece, a line headed by the entry shows the natural chain unless it says otherwise.
UniProt P37231: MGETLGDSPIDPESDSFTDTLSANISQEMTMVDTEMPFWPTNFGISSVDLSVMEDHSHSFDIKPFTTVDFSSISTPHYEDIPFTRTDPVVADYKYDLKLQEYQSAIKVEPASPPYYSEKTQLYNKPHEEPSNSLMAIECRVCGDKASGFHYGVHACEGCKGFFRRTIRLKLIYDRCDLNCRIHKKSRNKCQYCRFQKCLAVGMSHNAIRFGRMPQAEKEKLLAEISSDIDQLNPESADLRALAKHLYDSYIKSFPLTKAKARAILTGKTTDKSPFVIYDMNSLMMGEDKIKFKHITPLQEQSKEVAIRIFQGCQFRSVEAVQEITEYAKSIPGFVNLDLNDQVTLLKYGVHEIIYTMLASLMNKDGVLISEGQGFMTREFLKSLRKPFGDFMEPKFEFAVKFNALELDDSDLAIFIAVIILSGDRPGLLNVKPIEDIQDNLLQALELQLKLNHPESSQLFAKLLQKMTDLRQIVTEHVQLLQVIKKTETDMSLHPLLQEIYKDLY

The assay concerns the target Peroxisome proliferator-activated receptor gamma (Homo sapiens, UniProt P37231). Briefly: Activity at human PPARgamma transfected in HEK293 cells assessed as transactivation activity after 24 hrs by Dual-luciferase reporter gene assay. The format is cell-based. (In general: Reporter assays use an easily measured gene product as a stand-in for the process of interest.)

As to `Cc1c(C)n(Cc2ccc(-c3ccccc3C(=O)O)cc2)c2ccc(C(=O)NCc3cccnc3)cc12`, the %max came out at 0%.
